Patent US9617225B2 (VIROSTATICS SRL, priority 2012, dated 2017)

Amino acid sequences for entries named in this document (tags omitted).
UniProt P50750, whole entry: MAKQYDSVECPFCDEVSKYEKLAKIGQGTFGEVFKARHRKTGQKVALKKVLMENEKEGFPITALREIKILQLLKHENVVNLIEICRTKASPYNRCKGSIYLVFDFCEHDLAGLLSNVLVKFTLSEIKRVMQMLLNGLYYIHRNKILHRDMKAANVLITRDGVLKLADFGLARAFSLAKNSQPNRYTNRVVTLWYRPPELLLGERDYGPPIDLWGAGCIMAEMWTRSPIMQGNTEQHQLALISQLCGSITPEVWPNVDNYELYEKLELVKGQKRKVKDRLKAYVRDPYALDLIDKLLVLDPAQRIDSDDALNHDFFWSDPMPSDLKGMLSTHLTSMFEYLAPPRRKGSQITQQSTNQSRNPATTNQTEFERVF

Molecular target: human CDK9/CyclinT kinase complex (Homo sapiens (Human), UniProt P50750)
Test: In Vitro CDK9/CyclinT Assay (IMAP fluorescent polarization)
Format: biochemical

Structure (SMILES): COc1ccc(Nc2cc(-c3ccccc3OC)ncn2)cc1CN(C)C [Example 35, N-(3-((Dimethylamino)methyl)-4-methoxyphenyl)-6-(2-methoxyphenyl)pyrimidin-4-amine]
- IC50: < 100 nM
